Biological target: BTK (Homo sapiens (Human), UniProt Q06187)
Experiment: Omnia assay for potency assessment against BTK
Format: biochemical
Conditions: [BTK]=5 nM, read-out: BTK Inhibition (IC50)

Protein sequences, listed by entry. Tags and fused reporters are not part of them. Lines headed by an entry give the natural chain unless they say otherwise; changes in a name come on top.
UniProt Q06187: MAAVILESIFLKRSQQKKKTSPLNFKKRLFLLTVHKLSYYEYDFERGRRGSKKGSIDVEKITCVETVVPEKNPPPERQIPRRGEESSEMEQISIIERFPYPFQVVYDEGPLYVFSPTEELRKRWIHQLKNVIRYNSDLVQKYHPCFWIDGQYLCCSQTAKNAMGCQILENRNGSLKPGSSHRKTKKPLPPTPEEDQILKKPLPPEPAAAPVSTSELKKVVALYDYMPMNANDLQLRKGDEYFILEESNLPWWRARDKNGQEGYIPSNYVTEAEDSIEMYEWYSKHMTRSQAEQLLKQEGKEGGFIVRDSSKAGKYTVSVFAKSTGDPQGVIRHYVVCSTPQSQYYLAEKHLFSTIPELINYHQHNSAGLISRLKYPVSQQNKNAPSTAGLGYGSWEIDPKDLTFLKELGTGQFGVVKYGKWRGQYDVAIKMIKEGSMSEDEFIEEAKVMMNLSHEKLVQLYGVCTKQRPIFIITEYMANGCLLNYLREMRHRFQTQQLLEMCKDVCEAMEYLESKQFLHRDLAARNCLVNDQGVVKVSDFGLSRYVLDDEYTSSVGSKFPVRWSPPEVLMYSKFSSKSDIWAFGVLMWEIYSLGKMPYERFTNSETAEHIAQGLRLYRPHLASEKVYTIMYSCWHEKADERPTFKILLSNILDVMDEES

IC50: < 10 nM
Compound: C=CC(=O)Nc1cccc(Nc2nc(Nc3ccc(OCCOC)cc3)ncc2F)c1 [Compound I-182, N-(3-(5-fluoro-2-(4-(2-methoxyethoxy)phenylamino)pyrimidin-4-ylamino)phenyl)acrylamide]
